Values of other authors in patent US20150335610A1, “PDK4 INHIBITOR AND USE THEREOF” (priority 2012, published 2015).

Chains of the proteins cited; added tags and fusions are not shown.
UniProt Q16654, whole entry, species assumed: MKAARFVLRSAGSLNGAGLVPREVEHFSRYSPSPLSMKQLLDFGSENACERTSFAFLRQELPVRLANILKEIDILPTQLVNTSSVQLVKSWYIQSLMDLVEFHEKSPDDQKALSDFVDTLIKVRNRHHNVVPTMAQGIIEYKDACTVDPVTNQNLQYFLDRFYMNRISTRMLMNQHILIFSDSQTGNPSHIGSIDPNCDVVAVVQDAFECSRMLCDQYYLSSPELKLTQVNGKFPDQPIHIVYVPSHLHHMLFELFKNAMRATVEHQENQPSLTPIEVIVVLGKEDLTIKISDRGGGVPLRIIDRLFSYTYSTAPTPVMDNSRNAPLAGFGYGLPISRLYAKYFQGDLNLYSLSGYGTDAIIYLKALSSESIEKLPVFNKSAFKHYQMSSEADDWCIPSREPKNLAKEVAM

Target: PDK4 (Homo sapiens, UniProt Q16654)
Conditions: background art; cited from earlier work

## O=C(O)C(Cl)Cl [DCA, dichloroacetic acid]
  effect on PDK4 activity (reported): weak inhibitory activity
